AlphaSeq binding of Ab-91 heavy chain variants to a spike HR2 peptide

Values reported by Engelhart et al. 2022, doi:10.1038/s41597-022-01779-4 (FLAb copy).

The target is the same throughout: PDVDLGDISGINAS, from the HR2 region of SARS-CoV-2 spike.

Ab-91 is the parent antibody, in scFv form: VL, then the linker GGGGSGGGGSGGGGS, then VH. The light chain is unchanged in all variants.
VL: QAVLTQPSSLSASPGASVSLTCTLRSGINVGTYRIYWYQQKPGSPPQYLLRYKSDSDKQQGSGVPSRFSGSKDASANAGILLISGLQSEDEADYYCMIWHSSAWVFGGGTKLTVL
VH: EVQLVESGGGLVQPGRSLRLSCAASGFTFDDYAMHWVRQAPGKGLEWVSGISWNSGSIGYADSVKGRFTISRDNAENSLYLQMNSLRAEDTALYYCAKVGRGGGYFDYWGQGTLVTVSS

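The starting antibody came from a phage panning campaign against this peptide. The library (AAYL51) carries one to three amino acid substitutions per variant, with no insertions or deletions. AlphaSeq pools MATa yeast showing the antibodies with MATalpha yeast showing the peptide. Pairs that bind mate more often; barcode pairs of the diploids are counted by sequencing. A regression on co-assayed BCL2-family reference pairs converts the normalised counts of each replicate to an apparent Kd. There are three technical replicates.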

Variants are written as CDR1, CDR2 and CDR3 of the heavy chain (limits as in the source). Parent: GFTFDDYAMH, GISWNSGSIGYADSVK, VGRGGGYFDY. Affinities are written as log10 Kd with Kd in nM; a lower number is a better binder. Averages over replicates are reported, and they cover detected replicates only. "ND" marks a missing value. The strain was present, yet no cells mated with the target were sequenced in that replicate, which points to weak or no binding.

CDR-H1,CDR-H2,CDR-H3,"log10 Kd, replicates","mean, log10 nM",signal with controls
GFTFDDYAMH,GISWNSGSIGYADSVK,VGRKSGYFDC,ND ND ND,ND,3/9 (3.71)
GFTFLDYAMH,GINWNSGSIGYADSVK,PGRGGGYFDY,ND ND ND,ND,0/9
GFTFMDYAMH,GISWNSGSICYADSVK,VGRGGGYFDM,4.46 ND ND,4.46,3/9 (3.91)
GFSFDDYAMH,PISWNSGSIGYADSVK,VGRGGGYFDY,ND ND ND,ND,2/9 (3.58)
GFTCDDYAMH,GISWESGSIGYDDSVK,VGRGGGYFDY,4.99 ND ND,4.99,2/9 (4.55)
GFTFDDVAMH,GISWNSGSIGYANSLK,VGRGGGYFDY,3.10 3.07 3.96,3.38,1/9 (5.41)
GFTFPDYAMH,GIDWNSGSIGYADSVK,VGRGGGYFDY,5.68 ND ND,5.68,2/9 (3.55)
GFTFDDYAMH,TISWNSGSIGYADSVW,VGRGGGYFDY,ND ND ND,ND,3/9 (4.22)
GFTFDDYAMH,GIWHNSGSIGYADSVK,VGRGGGYFWY,3.74 ND 4.84,4.29,3/9 (5.02)
GFTFDDYAMH,GISWSSGSNGYADSVK,VGRGGGPFDY,ND ND ND,ND,0/9
GQTFDDYAMI,GRSWNSGSIGYADSVK,VGRGGGYFDY,4.39 ND ND,4.39,4/9 (4.88)
GFTFDDYAMH,GISWNSGSIGYARSVK,VHRHGGYFDY,ND ND ND,ND,1/9 (2.55)
GPTFDDYAMH,GISWNSGSIGYADSVK,VGRGGAYFLY,2.78 3.20 3.04,3.01,2/9 (5.26)
GFTFDRYAMH,GISWNSGSIGYADSVK,VGHGHGYFDY,0.94 1.01 0.30,0.75,1/9 (5.45)
GFTFDDYAMH,GIKWTSGSIGYADSVK,VGRGGFYFDY,5.03 ND ND,5.03,2/9 (3.58)
GDTFDDYAMH,GICWNSGSIGYADSVK,VGRGGGYFMY,4.89 4.78 ND,4.84,4/9 (4.86)
GFTFDDYGMH,GCSWNSGSIGYADSVK,VPRGGGYFDY,ND 5.41 ND,5.41,2/9 (4.77)
GFTFDDYLMH,CISWNSGSIGYADSVK,VMRGGGYFDY,ND ND 4.48,4.48,2/9 (4.58)
GFTFDDYARH,GISWNSGSIGYAASVK,SGRGGGYFDY,ND ND ND,ND,0/9
GMTFDTYAMH,GISWASGSIGYADSVK,VGRGGGYFDY,5.01 ND ND,5.01,3/9 (4.35)
GFTFDDNAMH,GISWNSGSIGYRDSVK,VGRGGGYFDY,2.13 3.13 3.25,2.84,1/9 (4.68)
GFTFDDYAMH,GISWNSGSIGYWDSVK,MGGGGGYFDY,5.11 5.89 5.45,5.48,9/9 (5.00)
GFTFDDYAMH,GISWNSGSIGYFDSVK,VGRGGGYRDY,5.62 3.26 ND,4.44,1/9 (3.31)
GFFFDDYAMH,GISWNSGMIGYADSSK,VGRGGGYFDY,ND ND ND,ND,1/9 (3.45)
GFTFDDYAMH,MISWNSCSIGYADSVK,VGYGGGYFDY,ND ND ND,ND,2/9 (4.14)
GFTFDDYAMH,GISRNSGCIGYADSVR,VGRGGGYFDY,3.19 6.19 ND,4.69,4/9 (4.05)
GFTFDDMAMH,GISWNSGSIGYADSVK,VLRGSGYFDY,4.59 ND ND,4.59,3/9 (3.88)
GFTFDDYAMH,GISINSGSIGYADSVK,VGRGGGYFDY,1.53 1.06 0.48,1.02,0/9
GFTFDDYAYH,GISWNSGWIGYADSVK,VGRGGLYFDY,4.61 ND 4.60,4.61,2/9 (4.60)
GFTFSDYAMH,GISWNSGSIGYADSVK,VERGGGEFDY,3.59 2.92 3.78,3.43,4/9 (4.51)
GFRFDDYAMH,GESWNSGSIGYADRVK,VGRGGGYFDY,3.95 ND ND,3.95,3/9 (3.60)
GFTFDDYAMH,GISWNSGSIPYADSVK,VGCGGGYFDY,4.06 ND ND,4.06,4/9 (4.51)
GFTFDDYAMH,GISWNSGSIGYADSVK,VVRGGSYFHY,2.09 2.07 2.05,2.07,2/9 (3.87)
GFWFDDYAMR,GISWNSGSIGYAPSVK,VGRGGGYFDY,ND ND ND,ND,0/9
GFTFDDYAMH,GIWWNSGSIGYADSVK,VLAGGGYFDY,3.81 ND ND,3.81,3/9 (4.43)
GFTFDDYAQH,MISWNSGSIGYADSVK,VGRGGGYFDY,ND ND ND,ND,1/9 (4.34)
GFLFDDYAMH,GISWNSGSIGYADSVK,VARHGGYFDY,ND ND ND,ND,0/9
GFTFDDYAMH,GISWMSGSIGYADSVS,VGRGRGYFDY,4.42 5.49 4.52,4.81,3/9 (3.66)
GFTFDDYAMH,GISWNHGSIGYADSVK,VGRGGGYFDY,4.31 4.94 4.89,4.71,2/9 (5.32)
GFTFDDYIMH,GISINSGWIGYADSVK,VGRGGGYFDY,ND ND ND,ND,1/9 (3.37)
GFTFDDYAMT,GISFNSGSIGYADSVK,VGRGGGYFIY,ND ND ND,ND,0/9
GFTFDDYFMH,GISWNSGCIGYADSVC,VGRGGGYFDY,ND ND ND,ND,3/9 (4.14)
GFTFDDYAFS,GISWNSGSIGWADSVK,VGRGGGYFDY,4.88 4.81 4.57,4.75,7/9 (4.66)
GFTFDDYAFF,SISWNSGSIGYADSVK,VGRGGGYFDY,3.98 ND ND,3.98,0/9

A selection of 5 entries from above:

CDR-H1,CDR-H2,CDR-H3,"log10 Kd, replicates","mean, log10 nM",signal with controls
GFTFDDYAQH,MISWNSGSIGYADSVK,VGRGGGYFDY,ND ND ND,ND,1/9 (4.34)
GFTFSDYAMH,GISWNSGSIGYADSVK,VERGGGEFDY,3.59 2.92 3.78,3.43,4/9 (4.51)
GFTFDDYAMH,GISWSSGSNGYADSVK,VGRGGGPFDY,ND ND ND,ND,0/9
GFSFDDYAMH,PISWNSGSIGYADSVK,VGRGGGYFDY,ND ND ND,ND,2/9 (3.58)
GFTFDDYAMH,GISWNSGSIGYARSVK,VHRHGGYFDY,ND ND ND,ND,1/9 (2.55)

Background: pairings of library AAYL51 with three empty control strains gave a value in 21% of cases (median 4.54, 5th percentile 3.26). Values in that range, when seen in few replicates, are hard to tell from nonspecific mating. The control count says in how many pairings with the empty strains this scFv gave a signal, with their mean in brackets. Parent in this assay: reference entry 1.86, copy in this library 0.88.